Values of other authors as cited in US20260335453A1, “ISOINDOLINONE-GLUTARIMIDE ANTIBODY CONJUGATES, AND USES THEREOF” (FIREFLY BIO, INC., priority 2023, published 2026).

Biological target: extracellular domain of HER2
Details: cell-based assay; cited from earlier work

Substance: Trastuzumab
- Kd: 5 nM
